Experimental findings from PubChem BioAssay AID504884 (Broad Institute, 2011) are described below.

This is a selection; strong and weak results do not stand in their true shares. Some of these compounds have results that are not shown, active ones among them. The source made the active and inactive calls. No stated cut-off is given here; in the data, active means activity above about 50% (passing the limit was not always enough); inconclusive means no clear call, values can overlap the other calls.

The assay concerns DNA topoisomerase I (Yersinia pestis CO92). As to the kind of experiment: Yersinia pestis topoisomerase I inhibitors, primary screen, biochemical, cleavage product accumulation, plate reader, single point (AID 504884). The conditions noted are these: Y. pestis Topo-I cleavage product accumulation, at 10 µM, hits give high values.
For the compound `O=C(NCC1(N2CCCCC2)CCCCC1)c1cccc(Cl)c1`, the activity was inactive: 6.76%.

As to `COc1ccc(Cl)cc1C(=O)NCC1(N(C)C)CCCCC1`, the activity was inactive: 3.32%.

Take `COc1cccc(C(=O)NCC2(N3CCCCC3)CCCCC2)c1`: the activity is inactive: -6.3%.

As for `COc1cc(C(=O)NCC2(N(C)C)CCCCC2)c([N+](=O)[O-])cc1OC`, the activity was inactive: -0.379%.

`CN(C)C1(CNC(=O)c2ccc(Br)cc2)CCCCC1`: the activity is inactive: -9.69%.

For `CN(C)c1cccc(C(=O)NCC2(N(C)C)CCCCC2)c1`, the activity is inactive: -1.78%.

Consider `O=C(OCCN1CCCC1)C(O)(c1ccccc1)c1ccccc1`, for which the activity was inactive: 6.18%.

Regarding `CC(C)Oc1ccc(C(=O)NCC2(N(C)C)CCCCC2)cc1`, the activity was inactive: 5.28%.

For the compound `COc1ccc(Br)c(C(=O)NCC2(N3CCCCC3)CCCCC2)c1`, the activity is inactive: -7.1%.

As for `C=C(C)C#CC(O)(C(=O)OC1CCN(C)CC1)c1ccccc1` (stereo unspecified), the activity is inactive: 3.48%.

For `O=C(OC1CN2CCC1CC2)C(CO)(c1ccccc1)c1ccccc1` (stereo unspecified), the activity was inactive: 3.88%.

Consider `Cc1ccc(C(=O)NCC2(N3CCCCC3)CCCCC2)cc1`, for which the activity is inactive: 10.1%.

On to `CC(C)N1C(=O)CC2(CCN(CCOC(=O)C(O)(c3ccccc3)c3ccccc3)CC2)C1=O`, for which the activity was inactive: 12.2%.

As for `COc1cc(SC)ccc1C(=O)NCC1(N(C)C)CCCCC1`, the activity was inactive: 4.74%.

Consider `CCN(CC)CC(C)C(C)OC(=O)C(O)(c1ccccc1)c1ccccc1` (stereo unspecified), for which the activity was inactive: -0.552%.

As to `CN1[C@@H]2CC[C@H]1CC(OC(=O)C(O)(c1ccccc1)c1ccccc1)C2` (stereo partly specified), the activity is inactive: -0.87%.

With `O=C(NCC1(N2CCCCC2)CCCCC1)c1cc([N+](=O)[O-])ccc1Cl`, the activity is inactive: -2.21%.

On to `O=C(NCC1(N2CCCCC2)CCCCC1)c1cccc(Br)c1`, for which the activity is inactive: 3.91%.

On to `CCN1CCCC(OC(=O)C2(O)c3ccccc3C=Cc3ccccc32)C1` (stereo unspecified), for which the activity is inactive: -10.7%.

For `Cc1cc(C(=O)NCC2(N3CCCCC3)CCCCC2)ccc1[N+](=O)[O-]`, the activity was inactive: -3%.

As to `COc1ccc(C(=O)NCC2(N(C)C)CCCCC2)cc1`, the activity is inactive: 2.29%.

For the compound `O=C(NCC1(N2CCCCC2)CCCCC1)c1cc(F)c(F)cc1Cl`, the activity was inactive: -3.94%.

Turning to `C=CCN1CCN(CCOC(=O)C(O)(c2ccccc2)c2ccccc2)CC1`, the activity was inactive: -13.4%.

As for `CN(C)c1ccc(C(=O)NCC2(N(C)C)CCCCC2)cc1`, the activity is inactive: 0.421%.

With `CN(C)C1CCCC1OC(=O)C(O)(c1ccccc1)c1ccccc1` (stereo unspecified), the activity was inactive: -5.75%.

Take `Cc1ccccc1C(=O)NCC1(N2CCCCC2)CCCCC1`: the activity was inactive: -10.4%.
